Data as given in patent US9090593B2, “Bicyclic compounds as Pim inhibitors” (AMGEN INC., priority 2010, dated 2015).
Read-outs that look alike come from different tables or passages of the source. One block for each compound: values may come before it.

The chains behind the UniProt entries cited, without tags or fusion partners.
UniProt P11309, whole entry: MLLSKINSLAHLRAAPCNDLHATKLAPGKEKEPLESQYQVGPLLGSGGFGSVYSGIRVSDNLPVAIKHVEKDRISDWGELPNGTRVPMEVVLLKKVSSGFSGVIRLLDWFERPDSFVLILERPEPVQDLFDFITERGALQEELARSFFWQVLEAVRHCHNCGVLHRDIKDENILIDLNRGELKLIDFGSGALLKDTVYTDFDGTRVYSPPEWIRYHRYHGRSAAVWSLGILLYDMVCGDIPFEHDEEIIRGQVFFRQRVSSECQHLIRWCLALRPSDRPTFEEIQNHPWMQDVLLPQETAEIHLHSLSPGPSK
UniProt Q9P1W9, whole entry: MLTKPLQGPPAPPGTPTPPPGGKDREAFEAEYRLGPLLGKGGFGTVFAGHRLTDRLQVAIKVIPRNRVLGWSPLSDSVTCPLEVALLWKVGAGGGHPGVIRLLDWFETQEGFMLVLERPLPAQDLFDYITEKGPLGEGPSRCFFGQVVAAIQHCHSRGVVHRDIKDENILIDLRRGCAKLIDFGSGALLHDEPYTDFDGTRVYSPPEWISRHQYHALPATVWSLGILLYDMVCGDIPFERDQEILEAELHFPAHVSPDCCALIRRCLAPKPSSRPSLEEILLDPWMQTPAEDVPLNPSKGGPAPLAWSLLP

Assays:
[1] = target: full length recombinant Pim-1 protein (Homo sapiens, UniProt P11309); assay: Pim-1 enzyme assay (HTRF, phosphorylation of biotinylated-BAD (S112) peptide); assay type: biochemical; conditions: read-out: Pim_1_IC50
[2] = target: full length recombinant Pim-2 protein (Homo sapiens, UniProt Q9P1W9); assay: Pim-2 enzyme assay (HTRF, phosphorylation of biotinylated-BAD (S112) peptide); assay type: biochemical; conditions: read-out: Pim2_IC50
KMS-Cell = assay: KMS cell IC50 (Table 4); assay type: cell-based; conditions: read-out: KMS-Cell-IC50, KMS cells
[3] = target: Pim-2 stably transfected into the U2OS human osteogenic sarcoma line (Homo sapiens, UniProt Q9P1W9); assay: Pim cell assay, phospho-BAD normalized against total BAD, U2OS stably transfected with Pim-2
[4] = target: Pim-1 stably transfected into the U2OS human osteogenic sarcoma line (Homo sapiens, UniProt P11309); assay: Pim cell assay, phospho-BAD normalized against total BAD, U2OS stably transfected with Pim-1
[5] = tested form: racemate (8S and 8R)
[6] = read-out: Pim1_Cell_IC50_, 29 min incubation
[7] = tested form: racemic trans mixture, (3S,4S) and (3R,4)
[8] = tested form: racemic cis pair: (3R,4S) and (3S,4R) en
[9] = tested form: racemic trans pair: (3R,4R) and (3S,4S)
[10] = tested form: racemate: mixture of the (3S,5R) and (3R)
[11] = tested form: racemic trans pair, (3R,4R) and (3S,4S)
[12] = tested form: racemic cis pair, (3R,4S) and (3S,4R), t
[13] = tested form: single trans enantiomer, (3S,4S) or (3R)
[14] = tested form: racemate (4R and 4S)
[15] = tested form: racemate: mixture of the (3S,4S) and (3R)

IC50 [1]: 1 nM
IC50 [2]: 2 nM
IC50 (KMS-Cell): 4890 nM
SMILES: C[C@@H]1CNC[C@@H](Nc2nc(-c3n[nH]c4ccc(-c5c(F)cccc5F)cc34)cc(=O)[nH]2)C1 (relative stereo)

IC50 [1, 7]: 1 nM
IC50 [2, 7]: 1 nM
IC50 (KMS-Cell; [7]): 970 nM
SMILES: O=c1cc(-c2n[nH]c3ccc(-c4ccc(F)cc4F)cc23)nc(OC2CNCCC2F)[nH]1 (centres unmarked)

IC50 [1]: 1 nM
IC50 [2]: 2 nM
IC50 (KMS-Cell): 1330 nM
SMILES: C[C@@H]1CNC[C@H](Oc2nc(O)cc(-c3n[nH]c4ccc(-c5c(F)cccc5F)cc34)n2)C1

IC50 [1, 10]: 1 nM
IC50 [2, 10]: 3 nM
IC50 (KMS-Cell; [10]): 12000 nM
SMILES: CC1CNCC(Nc2nc(-c3n[nH]c4ccc(-c5c(F)cccc5F)cc34)cc(=O)[nH]2)C1 (centres unmarked)

IC50 [1]: 1 nM
IC50 [1, 12]: 3 nM
IC50 [2]: 3 nM
IC50 [2, 12]: 9 nM
IC50 (KMS-Cell): 1500 nM
IC50 (KMS-Cell; [12]): 4680 nM
SMILES: O=c1cc(-c2n[nH]c3ccc(-c4c(F)cccc4F)cc23)nc(OC2CCNCC2F)[nH]1 (single isomer, unassigned)

IC50 [1]: 1 nM
IC50 [2]: 4 nM
IC50 (KMS-Cell): 6690 nM
SMILES: CC1CNCC(Nc2nc(-c3n[nH]c4cc(F)c(-c5c(F)cccc5F)cc34)cc(=O)[nH]2)C1 (centres unmarked)

IC50 [1]: 1 nM
IC50 [2]: 5 nM
IC50 (KMS-Cell): 11200 nM
SMILES: C[C@H]1CNC[C@@H](Nc2nc(-c3n[nH]c4cc(F)c(-c5c(F)cccc5F)cc34)cc(=O)[nH]2)C1

IC50 [1, 15]: 13 nM
IC50 [2, 15]: 16 nM
IC50 (KMS-Cell; [15]): 9970 nM
SMILES: CC(C)C1CCNCC1Oc1cncc(-c2n[nH]c3ccc(-c4c(F)cccc4F)cc23)n1 (centres unmarked)

The remaining lines, values behind:

SMILES: Brc1ccc2[nH]nc(-c3cncc(OC4CNCCC45CC5)n3)c2c1 (centres unmarked)
IC50 [1]: 25 nM
IC50 [2]: 42 nM

SMILES: Fc1cccc(F)c1-c1ccc2[nH]nc(-c3cncc(OC4CCNCC45CC5)n3)c2c1 (centres unmarked)
IC50 [1, 5]: 1 nM
IC50 [2, 5]: 6 nM
IC50 (KMS-Cell; [5]): 7870 nM

SMILES: Fc1cccc(F)c1-c1ccc2[nH]nc(-c3cncc(OC4C=CCNC4)n3)c2c1 (centres unmarked)
IC50 ([3]; read-out: Pim2_Cell_IC50_, 29 min incubation): > 15800 nM
IC50 [2]: 46 nM
IC50 [4, 6]: 1390 nM

SMILES: N#Cc1ccncc1-c1ccc2[nH]nc(-c3cc(=O)[nH]c(OC4CNCCC4F)n3)c2c1 (centres unmarked)
IC50 [1]: 5 nM
IC50 [2]: 12 nM
IC50 (KMS-Cell): > 31600 nM

SMILES: FC1CNCCC1Oc1cncc(-c2n[nH]c3ccc(-c4cncc(C5CC5)n4)cc23)n1 (single isomer, unassigned)
IC50 [1, 8]: 1 nM
IC50 ([3]; read-out: Pim2_Cell_IC50_, 29 min incubation, tested form: racemic cis pair: (3R,4S) and (3S,4R) en): > 15800 nM
IC50 ([3]; read-out: Pim2_Cell_IC50_, 29 min incubation, tested form: racemic trans pair: (3R,4R) and (3S,4S)): 4310 nM
IC50 [2, 8]: 14 nM
IC50 [2, 9]: 4 nM
IC50 (KMS-Cell; [9]): 2450 nM
IC50 ([4]; read-out: Pim1_Cell_IC50_, 29 min incubation, tested form: racemic cis pair: (3R,4S) and (3S,4R) en): 50 nM
IC50 ([4]; read-out: Pim1_Cell_IC50_, 29 min incubation, tested form: racemic trans pair: (3R,4R) and (3S,4S)): 51 nM

SMILES: O=c1cc(-c2n[nH]c3ccc(-c4cccnc4F)cc23)nc(OC2CNCCC2F)[nH]1 (centres unmarked)
IC50 [1, 11]: 1 nM
IC50 [2, 11]: 3 nM
IC50 (KMS-Cell; [11]): 2740 nM

SMILES: CC1(C)CNCCC1Oc1cncc(-c2n[nH]c3ccc(-c4c(F)cccc4F)cc23)n1 (centres unmarked)
IC50 [1]: 4 nM
IC50 [2]: 55 nM
IC50 [4, 6]: 1540 nM

SMILES: CS(=O)(=O)c1ccc(-c2ccc3[nH]nc(-c4cc(=O)[nH]c(OC5CNCCC5F)n4)c3c2)c(F)c1 (centres unmarked)
IC50 [1, 13]: 1 nM
IC50 [2, 13]: 1 nM
IC50 (KMS-Cell; [13]): 3610 nM

SMILES: Fc1cccc(F)c1-c1ccc2[nH]cc(-c3cncc(OC4CNCCC45CC5)n3)c2c1 (centres unmarked)
IC50 [1, 14]: 1 nM
IC50 ([3]; read-out: Pim2_Cell_IC50_, 29 min incubation, tested form: racemate (4R and 4S)): 2490 nM
IC50 [2, 14]: 2 nM
IC50 ([4]; read-out: Pim1_Cell_IC50_, 29 min incubation, tested form: racemate (4R and 4S)): 180 nM

SMILES: CC[C@@H]1CCNC[C@H]1Oc1cncc(-c2n[nH]c3ccc(-c4c(F)cccc4F)cc23)n1 [Example 397]
IC50 [1]: 13 nM
IC50 [2]: 14 nM
IC50 (KMS-Cell): 8010 nM
